This is an account of results in patent publication US20090202550A1 (WILEX, published 2009).

The experiment concerns the target full length GPI-linked D1D2D3 (cell surface uPAR) (human) (UniProt Q03405). Description: cell-based or functional assay.

“ATF, the N-terminal fragment of uPA (from UniProt P00749 21-155) (ligand)” displayed a % induced migration (ATF) of monocytes, no antibody of 339% and a Migration fold increase, no antibody of 3.4 fold.
